Columns and labels:
KAT-8 = KAT-8 (Homo sapiens (Human), UniProt Q9H7Z6); assay: KAT-8 biochemical inhibition assay (SAMDI mass spectrometry); details: read-out: KAT-8 IC50
Protocol: (§1) KAT-8. Enzyme assay buffer was 50 mM Tris pH 8.0, 0.002% Tween20, 0.005% bovine skin gelatin, and 1 mM dithiothreitol (DTT). For determination of IC50 values, compounds were serially diluted with 2% (v/v) DMSO in the final reaction, pre-incubating each dilution of each compound with 40 μL of assay buffer containing KAT-8 enzyme (12.5 nM final concentration). 10 μL of assay buffer containing 1 μM peptide substrate and 5 μM acetyl coenzyme A (final concentrations) was added. Reactions (50 μL total) were then carried out at 25° C. for 90 minutes. Reactions were terminated by the addition of 0.5% formic acid (final concentration), and a sample of each reaction was analyzed by SAMDI Tech, Inc. (Chicago, Ill.) using self-assembled monolayer desorption/ionization time-of-flight mass spectrometry (Mrksich, M. (2008) Mass spectrometry of self-assembled monolayers: a new tool for molecular surface science. ACS Nano 2, 7-18).

Chains of the proteins cited; added tags and fusions are not shown. A line that says so, or that is headed by a name, gives the form on record, which may keep a tag or linker. Residues count along the entry.
UniProt Q9H7Z6, 1-458 with tags or gaps limits assumed: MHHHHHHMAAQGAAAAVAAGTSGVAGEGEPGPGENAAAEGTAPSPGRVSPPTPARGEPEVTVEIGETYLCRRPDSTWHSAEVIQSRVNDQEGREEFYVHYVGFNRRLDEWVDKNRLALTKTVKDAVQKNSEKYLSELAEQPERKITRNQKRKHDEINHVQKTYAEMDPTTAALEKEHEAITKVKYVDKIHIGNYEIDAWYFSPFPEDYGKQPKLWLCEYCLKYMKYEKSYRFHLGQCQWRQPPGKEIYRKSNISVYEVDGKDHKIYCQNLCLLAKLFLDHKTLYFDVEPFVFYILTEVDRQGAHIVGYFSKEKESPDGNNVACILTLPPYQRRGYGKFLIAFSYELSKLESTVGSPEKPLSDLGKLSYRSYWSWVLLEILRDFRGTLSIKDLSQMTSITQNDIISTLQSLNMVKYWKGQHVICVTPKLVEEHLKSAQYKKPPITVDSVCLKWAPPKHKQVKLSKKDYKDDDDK
UniProt Q92794, 501-784 with tags or gaps limits assumed: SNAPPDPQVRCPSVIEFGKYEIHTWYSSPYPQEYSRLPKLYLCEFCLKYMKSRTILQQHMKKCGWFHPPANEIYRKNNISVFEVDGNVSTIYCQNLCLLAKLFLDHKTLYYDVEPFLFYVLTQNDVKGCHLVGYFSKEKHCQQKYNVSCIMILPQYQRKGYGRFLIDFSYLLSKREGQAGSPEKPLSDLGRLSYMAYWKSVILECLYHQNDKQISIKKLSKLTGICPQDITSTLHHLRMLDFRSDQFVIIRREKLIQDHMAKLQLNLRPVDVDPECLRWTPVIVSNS
UniProt Q92993, 1-513 with tags or gaps limits assumed: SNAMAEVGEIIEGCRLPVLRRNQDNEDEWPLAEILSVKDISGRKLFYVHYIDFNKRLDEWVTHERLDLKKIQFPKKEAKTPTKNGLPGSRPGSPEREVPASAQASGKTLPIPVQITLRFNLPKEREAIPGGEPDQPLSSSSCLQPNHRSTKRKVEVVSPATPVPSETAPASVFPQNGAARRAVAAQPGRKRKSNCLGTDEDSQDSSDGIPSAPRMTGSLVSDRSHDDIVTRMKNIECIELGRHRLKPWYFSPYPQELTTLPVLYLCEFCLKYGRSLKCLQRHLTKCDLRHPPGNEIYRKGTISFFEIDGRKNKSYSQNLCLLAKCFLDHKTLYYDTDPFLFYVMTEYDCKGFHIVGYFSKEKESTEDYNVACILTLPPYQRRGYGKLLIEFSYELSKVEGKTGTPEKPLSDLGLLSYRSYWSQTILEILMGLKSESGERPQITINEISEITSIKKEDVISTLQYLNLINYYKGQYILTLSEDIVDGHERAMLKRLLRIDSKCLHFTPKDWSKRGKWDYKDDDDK
UniProt O95251, 1-611 with tags or gaps limits assumed: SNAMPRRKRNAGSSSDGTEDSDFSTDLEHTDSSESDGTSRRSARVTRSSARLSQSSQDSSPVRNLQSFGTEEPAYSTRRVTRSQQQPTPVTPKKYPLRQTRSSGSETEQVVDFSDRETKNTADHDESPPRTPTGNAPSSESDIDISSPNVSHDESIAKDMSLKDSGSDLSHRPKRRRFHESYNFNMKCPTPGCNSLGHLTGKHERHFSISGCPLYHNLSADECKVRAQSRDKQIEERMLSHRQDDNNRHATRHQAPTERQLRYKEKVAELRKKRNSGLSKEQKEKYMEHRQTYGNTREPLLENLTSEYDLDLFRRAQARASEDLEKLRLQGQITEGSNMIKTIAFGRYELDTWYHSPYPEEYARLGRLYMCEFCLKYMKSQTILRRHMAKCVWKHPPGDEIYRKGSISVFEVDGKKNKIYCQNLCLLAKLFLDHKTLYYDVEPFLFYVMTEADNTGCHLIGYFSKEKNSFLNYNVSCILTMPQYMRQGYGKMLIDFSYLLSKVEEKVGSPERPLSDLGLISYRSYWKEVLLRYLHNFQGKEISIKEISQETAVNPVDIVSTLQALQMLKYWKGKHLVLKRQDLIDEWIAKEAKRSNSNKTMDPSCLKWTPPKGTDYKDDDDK

KAT-6A = KAT-6A (Homo sapiens (Human), UniProt Q92794); assay: KAT-6A biochemical inhibition assay (SAMDI mass spectrometry); details: read-out: KAT-6A IC50
Protocol: as §1, with “KAT-6A. Enzyme” for “KAT-8. Enzyme”, “containing KAT-6A” for “containing KAT-8”, “and 1” for “and 5”

KAT-5 = KAT-5 (Homo sapiens (Human), UniProt Q92993); assay: KAT-5 biochemical inhibition assay (SAMDI mass spectrometry); details: read-out: KAT-5 IC50
Protocol: as §1, with “KAT-5. Enzyme” for “KAT-8. Enzyme”, “containing KAT-5” for “containing KAT-8”, “enzyme (9” for “enzyme (12.5”, “and 0.5” for “and 5”

KAT-7 = KAT-7 (Homo sapiens (Human), UniProt O95251); assay: KAT-7 biochemical inhibition assay (SAMDI mass spectrometry); details: read-out: KAT-7 IC50
Protocol: as §1, with “KAT-7. Enzyme” for “KAT-8. Enzyme”, “containing KAT-7” for “containing KAT-8”, “enzyme (6” for “enzyme (12.5”, “and 2” for “and 5”, “for 120” for “for 90”

O=C(NNS(=O)(=O)CC1CCCCC1)c1cc(-c2cn[nH]c2)cc(Cl)c1F
IC50 (KAT-8): 50 to 100 µM

Cn1cnc(-c2cc(Cl)c(F)c(C(=O)NNS(=O)(=O)c3c[nH]nn3)c2)c1
IC50 (KAT-8): 10 to 50 µM

Cc1[nH]ncc1-c1cc(Cl)c(F)c(C(=O)NNS(=O)(=O)CC2CCOCC2)c1
IC50 (KAT-8): 10 to 50 µM

O=C(NNS(=O)(=O)CC1CCCCC1)c1cc(-c2cnc[nH]2)cc(Cl)c1F
IC50 (KAT-8): 10 to 50 µM

O=C(NNS(=O)(=O)CC1CCCCC1)c1cc(-c2ccn[nH]2)cc(Cl)c1F
IC50 (KAT-6A): < 10 µM
IC50 (KAT-8): 10 to 50 µM
IC50 (KAT-5): < 10 µM
IC50 (KAT-7): < 10 µM

Cn1cnc(-c2cc(Cl)c(F)c(C(=O)NNS(=O)(=O)c3cn[nH]c3)c2)c1
IC50 (KAT-8): 10 to 50 µM

Source: patent US11685732B2, “MYST family histone acetyltransferase inhibitors” (Epizyme, Inc., priority 2017, dated 2023)
